Assay results from EP3120851A1, “4-AMINO-6-(2,6-DICHLOROPHENYL)-8-METHYL-2-(PHENYLAMINO)-PYRIDO[2,3-D]PYRIMIDIN-7(8H)-ONE FOR TREATMENT OF SOLID CANCERS” (Pangaea Biotech S.L., priority 2015, dated 2017).

Key:
H2228 Cells = experiment: MTT cell viability assay, combinations (Chou-Talalay method); assay type: cell-based; details: TKI single agent vs with compound (1)
Experimental: (§1) The combinations comprising the compound of formula (1) were tested using an MTT proliferation assay in a panel of tumor cell lines of different origins. All culture materials were obtained from the sources described in Example 2. In the Chou-Talalay method, which is the standard, universally known methodology to determine drug interactions, the two drugs under study are maintained at a fixed ratio of IC50 single agent (drug 1):IC50 single agent (drug 2) while the concentration of total amount of drugs in the combination is varied and the 20% (IC20), 50% (IC50) and 80% (IC80) of growth inhibition of the combination is determined.
(§2) In the activity assays on cell lines the following terms are used: • IC50: Drug concentration at which 50% growth inhibition is achieved. • TKI IC50: The IC50 of the tyrosine kinase inhibitor as single agent. • Compound (1) IC50: The IC50 of compound (1) as single agent. • CI@IC20: The combination index of the combination consisting of drug 1 and drug 2 at a weight ratio equal to IC50 of drug 1:IC50 of drug 2 wherein said combination is used at a total amount that achieves 20% of growth inhibition. • CI@IC50: The combination index of the combination consisting of drug 1 and drug 2 at a weight ratio equal to IC50 of drug 1:IC50 of drug 2, wherein said combination is used at a total amount that achieves 50% of growth inhibition. • CI@IC80: The combination index of the combination consisting of drug 1 and drug 2 at a weight ratio equal to IC50 of drug 1:IC50 of drug 2, wherein said combination is used at a total amount that achieves 80% of growth inhibition. • Combination TKI IC50: The combination index at a tyrosine kinase inhibitor concentration that corresponds to the IC50 (single agent). • The combination index (CI) concept was introduced by Chou T.C. and Talalay P.(Chou TC, Talalay P. Adv Enzyme Regul 1984;22:27-55). The derived combination index equation for two drugs is (D = dosage or concentration): CI = ((D)1)/((Dx)1) + ((D)2)/((Dx)2) [formula] where (Dx)1 is the concentration of drug 1 "alone" that inhibits growth at a x% (i.e. (D50)1 is the concentration of drug 1 "alone" that inhibits growth at a 50%), (Dx)2 is the concentration of drug 2 "alone" that inhibits growth at a x%, (D)1 and (D)2 refer to the concentration of drug 1 and drug 2, respectively, in the combination, wherein the combination inhibits growth at the same x%. The CI Value quantitatively defines synergism (CI<1) (in particular, CI values of CI<0.7 indicates strong synergism, 0.7<CI<0.85 indicates moderate synergism, 0.85<CI<1 indicates slight synergism), additive effect (CI=1) and antagonism (CI>1). Based on the above equation, a plot of CI values at different effect levels (fa's) can be determined. Entering a series of "dose" ((D1), (D2), ((Dx)1 and (Dx)2) and % of growth inhibition (%x or effect (fa))" into an excel sheet for each drug alone and their combinations, the CI values at different x% (or fa levels) are obtained using the above equation. This plot is also called the Fa-CI plot or the Chou-Talalay plot.
(§3) Cell viability in response to combination treatment was assessed by the Thiazolyl Blue Tetrazolium Bromide (MTT) (Sigma, St Louis, MO) assay. Cells from each cell line were seeded at 2000 to 10000 per well in 96-well plates. […] Twenty-four hours after seeding, cells were exposed to compound (1), commercial drug or combinations thereof for 72 h. […]

H3122 Cells = experiment: as above; assay type: cell-based; details: TKI single agent vs with compound (1)
Experimental: as §1, §2, §3

HCC78 cells = experiment: as above; assay type: cell-based; details: TKI single agent vs with compound (1)
Experimental: as §1, §2, §3

[1] = test system: NSCLC patients with ALK transforming rearrangements; details: phase I clinical trial, Kwak et al., N Engl J Med, 2010, cited from earlier work

## C[C@@H](Oc1cc(-c2cnn(C3CCNCC3)c2)cnc1N)c1c(Cl)ccc(F)c1Cl [Crizotinib, 3-[(1R)-1-(2,6-dichloro-3-fluorophenyl)ethoxy]-5-(1-piperidin-4-ylpyrazol-4-yl)pyridin-2-amine]
H2228 Cells
  Fold change in the TKI IC50: 4.717 fold
H3122 Cells
  Fold change in the TKI IC50: 6.552 fold
H3122 Cells; listed as crizotinib
  Fold change in the TKI IC50: 6.5 fold
HCC78 cells
  Fold change in the TKI IC50: 28.755 fold
HCC78 cells; listed as crizotinib
  Fold change in the TKI IC50: ~30 fold
[1]; 6 months
  probability of progression-free survival at 6 months: 72%
[1]
  overall response rate: 57%
